# Data published in PubChem BioAssay AID504332 (National Center for Advancing Translational Sciences (NCATS), 2011).
# The chains behind the UniProt entries cited, without tags or fusion partners. Where a name states a change or a piece, a line headed by the entry shows the natural chain unless it says otherwise.
# UniProt Q96KQ7: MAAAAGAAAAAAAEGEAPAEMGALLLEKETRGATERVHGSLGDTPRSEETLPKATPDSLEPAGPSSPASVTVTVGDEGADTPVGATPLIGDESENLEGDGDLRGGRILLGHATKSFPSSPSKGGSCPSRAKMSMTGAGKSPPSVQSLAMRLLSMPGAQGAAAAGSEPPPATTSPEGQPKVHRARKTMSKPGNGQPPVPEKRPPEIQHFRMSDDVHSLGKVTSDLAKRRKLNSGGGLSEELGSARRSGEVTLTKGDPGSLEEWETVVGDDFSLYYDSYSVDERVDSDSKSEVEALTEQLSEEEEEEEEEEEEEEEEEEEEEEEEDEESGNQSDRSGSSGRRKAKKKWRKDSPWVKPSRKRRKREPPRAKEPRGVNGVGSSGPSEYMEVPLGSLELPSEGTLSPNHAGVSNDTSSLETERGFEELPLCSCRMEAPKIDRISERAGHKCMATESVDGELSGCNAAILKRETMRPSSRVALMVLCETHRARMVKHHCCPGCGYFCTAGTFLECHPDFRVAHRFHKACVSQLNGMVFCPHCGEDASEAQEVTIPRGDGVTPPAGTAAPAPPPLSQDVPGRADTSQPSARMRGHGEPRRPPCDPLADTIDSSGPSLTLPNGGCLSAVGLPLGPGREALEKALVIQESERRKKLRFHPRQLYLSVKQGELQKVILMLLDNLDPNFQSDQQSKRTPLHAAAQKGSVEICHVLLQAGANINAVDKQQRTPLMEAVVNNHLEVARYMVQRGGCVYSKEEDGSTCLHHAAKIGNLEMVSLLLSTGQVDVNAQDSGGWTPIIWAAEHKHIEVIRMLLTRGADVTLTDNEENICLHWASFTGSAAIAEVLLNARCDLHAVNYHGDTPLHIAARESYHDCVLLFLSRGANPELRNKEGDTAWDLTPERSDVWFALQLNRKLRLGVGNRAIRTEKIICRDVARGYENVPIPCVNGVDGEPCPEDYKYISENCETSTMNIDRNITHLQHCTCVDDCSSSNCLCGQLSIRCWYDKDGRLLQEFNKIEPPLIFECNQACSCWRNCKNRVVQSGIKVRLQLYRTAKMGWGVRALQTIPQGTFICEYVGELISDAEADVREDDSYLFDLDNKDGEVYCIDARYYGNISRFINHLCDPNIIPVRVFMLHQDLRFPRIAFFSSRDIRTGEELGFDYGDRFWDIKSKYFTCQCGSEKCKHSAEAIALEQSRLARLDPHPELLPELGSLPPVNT
# Where “and” joins values, the source holds several entries; their conditions need not be identical. Equal entries are not always repeated. The entries are a selection whose mix differs from that of the whole data set. Records with an inconclusive call do not appear. Calls of active or inactive are those of the source. The call rests on the fitted dose curve; in most records, active means well fitted inhibition curve with a large enough effect; inconclusive means small, poorly fitted or top-dose-only effect; inactive means no such curve, though single readings can be large or run the other way.
# Target: Histone-lysine N-methyltransferase EHMT2 (Homo sapiens) (UniProt Q96KQ7)
# Test: qHTS Assay for Inhibitors of Histone Lysine Methyltransferase G9a; on activity, negative = inhibition: nearly all actives have a fitted effect of over 75% in size
# Conditions: G9a H3K9 monomethylation, AlphaScreen, 2 h
# On the % scale 0 is the no-effect control and ±100 the full control effect.
structure (smiles),measurement,setting,value
C[C@@H](Cc1ccc(O)cc1)NC[C@@H](O)c1cc(O)cc(O)c1,"activity, negative = inhibition",at 12.7 µM (top of the series),inactive: -42.2%
CS(=N)(=O)CC[C@@H](N)C(=O)O (stereo not given in full),"activity, negative = inhibition",at 21.5 µM (top of the series),inactive: 15.6%
CC(Cc1ccc(O)cc1)NCC(O)c1cc(O)cc(O)c1 (stereo not given),"activity, negative = inhibition",at 2.33 µM (top of the series),inactive: -34.9%
same,"activity, negative = inhibition",at 12.7 µM (top of the series),inactive: 19.5% and inactive: 35.4%
CS(=N)(=O)CC[C@H](N)C(=O)O (stereo not given in full),"activity, negative = inhibition",,inactive
